The target in the assay is IDO1 (Homo sapiens, UniProt P14902). Description: IDO1 Cellular Assay in HeLa Cells Stimulated with IFNγ. The assay is classed as cell-based. As to conditions: HeLa cells stimulated with IFNγ 100 ng/mL, about 48 hours.

Amino acid sequences for entries named in this document (tags omitted).
UniProt P14902, whole entry: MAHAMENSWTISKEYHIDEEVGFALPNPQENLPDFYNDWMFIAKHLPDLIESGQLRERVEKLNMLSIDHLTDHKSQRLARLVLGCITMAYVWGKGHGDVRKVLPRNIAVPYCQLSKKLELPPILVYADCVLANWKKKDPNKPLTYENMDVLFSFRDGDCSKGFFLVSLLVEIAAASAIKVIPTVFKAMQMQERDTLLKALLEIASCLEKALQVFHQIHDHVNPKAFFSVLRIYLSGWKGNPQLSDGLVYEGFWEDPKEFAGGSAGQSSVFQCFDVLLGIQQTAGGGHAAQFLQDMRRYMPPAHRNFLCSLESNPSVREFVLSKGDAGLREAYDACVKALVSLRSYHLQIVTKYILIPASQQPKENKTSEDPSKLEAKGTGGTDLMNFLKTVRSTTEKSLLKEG

The values below come from US12576087B2, “Aryloxypiperidine pyrazole compounds as indoleamine 2,3-dioxygenase inhibitors” (Merck Sharp & Dohme LLC, priority 2018, dated 2026).

Counter-ions that a name gives are not always drawn.

By EC50 is commonly meant the concentration giving half of the maximal effect. Read a low EC50 as greater potency.

Take `O=C(Cn1nc(C(=O)N2CC[C@@H](O)[C@@H](F)C2)c2c1CCCC2)N1CCC(Oc2cccc(Cl)c2)CC1` [Example 48, 1-(4-(3-chlorophenoxy)piperidin-1-yl)-2-(3-((3S,4R)-3-fluoro-4-hydroxypiperidine-1-carbonyl)-4,5,6,7-tetrahydro-1H-indazol-1-yl)ethanone]: the EC50 came to 132 nM.
The same measure for `Cc1ccc(OC2CCN(C(=O)Cn3nc(C(=O)N4C[C@@H](C)O[C@@H](C)C4)c4c3CCC4)CC2)c(Cl)c1` [Example 131, 1-[4-(2-chloro-4-methylphenoxy)piperidin-1-yl]-2-{3-[(2R,6S)-2,6-dimethylmorpholine-4-carbonyl]-5,6-dihydrocyclopenta[c]pyrazol-1(4H)-yl}ethan-1-one]: 2.88 nM; for `Cc1c(Br)cccc1OC1CCN(C(=O)Cn2nc(C(=O)N3C[C@@H](C)O[C@@H](C)C3)c3c2CCC3)CC1` [Example 142, 1-[4-(3-bromo-2-methylphenoxy)piperidin-1-yl]-2-{3-[(2R,6S)-2,6-dimethylmorpholine-4-carbonyl]-5,6-dihydrocyclopenta[c]pyrazol-1(4H)-yl}ethan-1-one]: 13.9 nM.
The compound `Cc1cccc(F)c1OC1CCN(C(=O)Cn2nc(C(=O)N3C[C@@H](C)O[C@@H](C)C3)c3c2CCC3)CC1` [Example 138, 2-{3-[(2R,6S)-2,6-dimethylmorpholine-4-carbonyl]-5,6-dihydrocyclopenta[c]pyrazol-1(4H)-yl}-1-[4-(2-fluoro-6-methylphenoxy)piperidin-1-yl]ethan-1-one] returned an EC50 of 8.86 nM.
The same measure for `Cc1ccccc1OC1CCN(C(=O)Cn2nc(C(=O)N3CCC(O)CC3)c3c2C[C@H]2C[C@@H]32)CC1` [Example 21, 2-((3bR,4aR)-3-(4-hydroxypiperidine-1-carbonyl)-3b,4,4a,5-tetrahydro-1H-cyclopropa[3,4]cyclopenta[1,2-c]pyrazol-1-yl)-1-(4-(o-tolyloxy)piperidin-1-yl)ethanone]: 1.81 nM; for `C[C@H]1C[C@@H](Oc2ncccc2Cl)CCN1C(=O)Cn1nc(C(=O)N2CCC(OCCO)CC2)c2c1C[C@H]1C[C@@H]21` [Example 54, 1-((2S,4S)-4-((3-chloropyridin-2-yl)oxy)-2-methylpiperidin-1-yl)-2-((3bR,4aR)-3-(4-(2-hydroxyethoxy)piperidine-1-carbonyl)-3b,4,4a,5-tetrahydro-1H-cyclopropa[3,4]cyclopenta[1,2-c]pyrazol-1-yl)ethanone]: 20.4 nM.
The same measure for `C[C@@H]1CN(C(=O)c2nn(CC(=O)N3CCC(Oc4ccc(Cl)cc4Cl)CC3)c3c2CCC3)C[C@H](C)O1` [Example 146, 1-[4-(2,4-dichlorophenoxy)piperidin-1-yl]-2-{3-[(2R,6S)-2,6-dimethylmorpholine-4-carbonyl]-5,6-dihydrocyclopenta[c]pyrazol-1(4H)-yl}ethan-1-one]: 22.6 nM; for `CCOC(=O)c1nn(CC(=O)N2CCC(Oc3ccccc3C)CC2)c2c1CCC2` [Example 49, ethyl 1-(2-oxo-2-(4-(o-tolyloxy)piperidin-1-yl)ethyl)-1,4,5,6-tetrahydrocyclopenta[c]pyrazole-3-carboxylate]: 139 nM; for `C[C@@H]1CN(C(=O)c2nn(CC(=O)N3CCC(Oc4cccc5ccccc45)CC3)c3c2CCC3)C[C@H](C)O1` [Example 109, 2-{3-[(2R,6S)-2,6-dimethylmorpholine-4-carbonyl]-5,6-dihydrocyclopenta[c]pyrazol-1(4H)-yl}-1-{4-[(naphthalen-1-yl)oxy]piperidin-1-yl}ethan-1-one]: 129 nM.
Compound `Cc1ccccc1SC1CCN(C(=O)Cn2nc(C(=O)N3CC[C@@H](O)[C@@H](F)C3)c3c2C[C@H]2C[C@@H]32)CC1` [Example 177, 2-((3bR,4aR)-3-((3S,4R)-3-Fluoro-4-hydroxypiperidine-1-carbonyl)-3b,4,4a,5-tetrahydro-1H-cyclopropa[3,4]cyclopenta[1,2-c]pyrazol-1-yl)-1-(4-(o-tolylthio)piperidin-1-yl)ethanone] displayed a concentration giving a half-maximal response (EC50) of 0.51 nM.
`Cc1ccccc1OC1CCN(C(=O)Cn2nc(C(=O)N3CC[C@@H](O)[C@@H](F)C3)c3c2CCCC3)CC1` [Example 36, 2-(3-((3S,4R)-3-fluoro-4-hydroxypiperidine-1-carbonyl)-4,5,6,7-tetrahydro-1H-indazol-1-yl)-1-(4-(o-tolyloxy)piperidin-1-yl)ethanone] showed an EC50 of 4.78 nM.
The same measure for `C[C@@H]1C[C@H](Oc2ncccc2F)CCN1C(=O)Cn1nc(C(=O)N2CCC(OCCO)CC2)c2c1C[C@H]1C[C@@H]21` [Example 61, 1-((2R,4R)-4-((3-fluoropyridin-2-yl)oxy)-2-methylpiperidin-1-yl)-2-((3bR,4aR)-3-(4-(2-hydroxyethoxy)piperidine-1-carbonyl)-3b,4,4a,5-tetrahydro-1H-cyclopropa[3,4]cyclopenta[1,2-c]pyrazol-1-yl)ethanone, TFA]: 83.3 nM; for `Cc1ccccc1OC1CCN(C(=O)Cn2nc(C(=O)N3CCC(F)(CO)CC3)c3c2CCCC3)CC1` [Example 28, 2-(3-(4-fluoro-4-(hydroxymethyl)piperidine-1-carbonyl)-4,5,6,7-tetrahydro-1H-indazol-1-yl)-1-(4-(o-tolyloxy)piperidin-1-yl)ethanone]: 2.58 nM.
For `C[C@H]1C[C@H](Oc2ncccc2Cl)CCN1C(=O)Cn1nc(C(=O)N2CCC(OCCO)CC2)c2c1CCC2` [Example 66, 1-((2S,4R)-4-((3-chloropyridin-2-yl)oxy)-2-methylpiperidin-1-yl)-2-(3-(4-(2-hydroxyethoxy)piperidine-1-carbonyl)-5,6-dihydrocyclopenta[c]pyrazol-1(4H)-yl)ethanone, TFA] the value was 107 nM; for `C[C@@H]1CN(C(=O)c2nn(CC(=O)N3CCC(Oc4ncccc4OC(F)(F)F)CC3)c3c2CCC3)C[C@H](C)O1` [Example 111, 2-{3-[(2R,6S)-2,6-dimethylmorpholine-4-carbonyl]-5,6-dihydrocyclopenta[c]pyrazol-1(4H)-yl}-1-(4-{[3-(trifluoromethoxy)pyridin-2-yl]oxy}piperidin-1-yl)ethan-1-one], 139 nM.
The same measure for `Cc1ccc(F)cc1OC1CCN(C(=O)Cn2nc(C(=O)N3C[C@@H](C)O[C@@H](C)C3)c3c2CCC3)CC1` [Example 135, 2-[3-(2,6-dimethylmorpholine-4-carbonyl)-5,6-dihydrocyclopenta[c]pyrazol-1(4H)-yl]-1-[4-(5-fluoro-2-methylphenoxy)piperidin-1-yl]ethan-1-one]: 7.47 nM; for `C[C@@H]1CN(C(=O)c2nn(CC(=O)N3CCC(Oc4ccc(Cl)c5c4CCC5)CC3)c3c2CCC3)C[C@H](C)O1` [Example 129, 1-{4-[(7-chloro-2,3-dihydro-1H-inden-4-yl)oxy]piperidin-1-yl}-2-{3-[(2R,6S)-2,6-dimethylmorpholine-4-carbonyl]-5,6-dihydrocyclopenta[c]pyrazol-1(4H)-yl}ethan-1-one]: 1.66 nM; for `CCOC(=O)c1nn(CC(=O)N2CCC(Oc3ccccc3C)CC2)c2c1[C@@H]1C[C@@H]1C2` [Example 37, (3bR,4aR)-ethyl 1-(2-oxo-2-(4-(o-tolyloxy)piperidin-1-yl)ethyl)-3b,4,4a,5-tetrahydro-1H-cyclopropa[3,4]cyclopenta[1,2-c]pyrazole-3-carboxylate]: 5.9 nM.
Regarding `Cc1ccccc1OC1CCN(C(=O)Cn2nc(C(=O)N3CCN(C(=O)CO)CC3)c3c2CCCC3)CC1` [Example 38, 2-hydroxy-1-(4-(1-(2-oxo-2-(4-(o-tolyloxy)piperidin-1-yl)ethyl)-4,5,6,7-tetrahydro-1H-indazole-3-carbonyl)piperazin-1-yl)ethanone], the EC50 turned out to be 6.3 nM.
For `O=C(Cn1nc(C(=O)N2CC[C@H](O)[C@H](F)C2)c2c1CCCC2)N1CCC(Oc2ccccc2Cl)CC1` [Example 7, 1-(4-(2-chlorophenoxy)piperidin-1-yl)-2-(3-((3R,4S)-3-fluoro-4-hydroxypiperidine-1-carbonyl)-4,5,6,7-tetrahydro-1H-indazol-1-yl)ethanone] the value was 5.2 nM; for `Cc1ccc(OC2CCN(C(=O)Cn3nc(C(=O)N4C[C@@H](C)O[C@@H](C)C4)c4c3CCC4)CC2)cc1Cl` [Example 143, 1-[4-(3-chloro-4-methylphenoxy)piperidin-1-yl]-2-{3-[(2R,6S)-2,6-dimethylmorpholine-4-carbonyl]-5,6-dihydrocyclopenta[c]pyrazol-1(4H)-yl}ethan-1-one], 15.2 nM.
The same measure for `C[C@@H]1CN(C(=O)c2nn(CC(=O)N3CCC(Oc4cc(F)ccc4Br)CC3)c3c2CCC3)C[C@H](C)O1` [Example 91, 1-[4-(2-bromo-5-fluorophenoxy)piperidin-1-yl]-2-{3-[(2R,6S)-2,6-dimethylmorpholine-4-carbonyl]-5,6-dihydrocyclopenta[c]pyrazol-1(4H)-yl}ethan-1-one]: 1.09 nM.
For `C[C@@H]1CN(C(=O)c2nn(CC(=O)N3CCC(Oc4ccc(F)c(F)c4)CC3)c3c2CCC3)C[C@H](C)O1` [Example 107, 1-[4-(3,4-difluorophenoxy)piperidin-1-yl]-2-{3-[(2R,6S)-2,6-dimethylmorpholine-4-carbonyl]-5,6-dihydrocyclopenta[c]pyrazol-1(4H)-yl}ethan-1-one] the value was 47.7 nM.
The compound `C[C@@H]1CN(C(=O)c2nn(CC(=O)N3CCC(Oc4c(F)cccc4Cl)CC3)c3c2CCC3)C[C@H](C)O1` [Example 140, 1-[4-(2-chloro-6-fluorophenoxy)piperidin-1-yl]-2-{3-[(2R,6S)-2,6-dimethylmorpholine-4-carbonyl]-5,6-dihydrocyclopenta[c]pyrazol-1(4H)-yl}ethan-1-one] gave an EC50 of 10.3 nM.
Regarding `Cc1cc(F)ccc1OC1CCN(C(=O)Cn2nc(C(=O)N3CCO[C@@H](CO)C3)c3c2CCCC3)CC1` [Example 82, 1-[4-(4-fluoro-2-methyl-phenoxy)-1-piperidyl]-2-[3-[(2R)-2-(hydroxymethyl)morpholine-4-carbonyl]-4,5,6,7-tetrahydroindazol-1-yl]ethanone], a half-maximal effect (EC50) was put at 11 nM.
The compound `COc1ccccc1CC1CCN(C(=O)Cn2nc(C(=O)N3C[C@@H](C)O[C@@H](C)C3)c3c2CCC3)CC1` [Example 108, 2-{3-[(2R,6S)-2,6-dimethylmorpholine-4-carbonyl]-5,6-dihydrocyclopenta[c]pyrazol-1(4H)-yl}-1-{4-[(2-methoxyphenyl)methyl]piperidin-1-yl}ethan-1-one] yielded an EC50 of 125 nM.
